Experiments:
[1] = molecular target: Delta-type opioid receptor (Homo sapiens, UniProt P41143); test: Displacement of [3H]Naltrindole form human delta opioid receptor expressed in CHO cells
[2] = molecular target: T1, Kappa-type opioid receptor (Homo sapiens, UniProt P41145); details: cho
[3] = molecular target: Mu-type opioid receptor (Homo sapiens, UniProt P35372); details: cho
[4] = molecular target: T1, Kappa-type opioid receptor; details: cho; remark: listed apart in the source

Protein sequences, listed by entry. Tags and fused reporters are not part of them.
UniProt P41143, whole entry: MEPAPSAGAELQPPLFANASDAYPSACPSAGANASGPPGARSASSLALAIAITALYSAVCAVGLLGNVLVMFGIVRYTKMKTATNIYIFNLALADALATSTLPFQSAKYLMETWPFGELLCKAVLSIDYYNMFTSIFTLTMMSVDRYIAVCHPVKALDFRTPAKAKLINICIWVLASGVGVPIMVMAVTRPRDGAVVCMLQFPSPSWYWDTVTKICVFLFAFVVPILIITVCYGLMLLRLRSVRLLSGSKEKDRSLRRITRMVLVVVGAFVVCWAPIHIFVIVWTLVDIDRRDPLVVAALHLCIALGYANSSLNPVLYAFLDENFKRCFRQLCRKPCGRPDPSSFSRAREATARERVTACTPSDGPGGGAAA
UniProt P41145, whole entry: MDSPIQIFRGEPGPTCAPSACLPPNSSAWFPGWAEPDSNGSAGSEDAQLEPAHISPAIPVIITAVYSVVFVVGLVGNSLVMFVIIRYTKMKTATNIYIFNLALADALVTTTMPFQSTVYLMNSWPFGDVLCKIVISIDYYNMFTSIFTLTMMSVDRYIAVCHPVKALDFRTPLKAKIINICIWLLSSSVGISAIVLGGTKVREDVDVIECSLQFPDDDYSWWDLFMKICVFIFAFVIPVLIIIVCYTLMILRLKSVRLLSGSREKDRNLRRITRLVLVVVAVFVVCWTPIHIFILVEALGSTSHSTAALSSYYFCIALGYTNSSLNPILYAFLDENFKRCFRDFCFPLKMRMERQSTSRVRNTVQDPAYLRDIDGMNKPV
UniProt P35372, whole entry: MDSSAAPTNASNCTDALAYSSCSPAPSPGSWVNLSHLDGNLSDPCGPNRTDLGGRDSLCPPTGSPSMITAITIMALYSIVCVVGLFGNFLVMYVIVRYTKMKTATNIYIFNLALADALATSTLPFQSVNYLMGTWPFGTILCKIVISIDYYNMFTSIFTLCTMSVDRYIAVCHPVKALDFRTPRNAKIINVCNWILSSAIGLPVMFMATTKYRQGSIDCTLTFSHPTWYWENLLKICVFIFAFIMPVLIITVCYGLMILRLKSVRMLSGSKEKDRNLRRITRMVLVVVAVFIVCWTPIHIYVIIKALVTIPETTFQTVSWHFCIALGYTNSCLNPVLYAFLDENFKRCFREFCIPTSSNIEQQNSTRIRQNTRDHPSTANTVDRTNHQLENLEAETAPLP

What does the source list for CO[C@@]12CC[C@@]3(C[C@@H]1[C@@](C)(O)C(C)(C)C)[C@H]1Cc4ccc(C(N)=O)c5c4[C@@]3(CCN1CC1CC1)[C@H]2O5?
Ki [1]: 54 nM; Ki [2]: 2.1 nM; IC50 [3]: 4 nM; IC50 [4]: 140 nM
